## Yeast mating assay 1: variants of the scFv Ab-14

Antigen: PDVDLGDISGINAS, a 14-residue peptide of the SARS-CoV-2 spike HR2 region.

Parent: Ab-14, a human scFv built as VH, the linker GGGGSGGGGSGGGGS, VL. Only the CDRs of the heavy chain vary.
VH: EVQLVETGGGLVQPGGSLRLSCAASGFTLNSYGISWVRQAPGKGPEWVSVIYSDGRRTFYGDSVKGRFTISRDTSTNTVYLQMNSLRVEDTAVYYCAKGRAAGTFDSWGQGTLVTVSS
VL: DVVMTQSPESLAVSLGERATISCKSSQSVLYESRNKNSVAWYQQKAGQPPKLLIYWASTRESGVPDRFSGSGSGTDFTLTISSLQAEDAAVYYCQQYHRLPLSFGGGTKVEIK

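Phage display of a naive human antibody library on the peptide gave the parent. In library AAYL49, one, two or three CDR residues were substituted; doubles and triples were drawn at random. AlphaSeq pools MATa yeast showing the antibodies with MATalpha yeast showing the peptide. The frequency of each diploid, read from paired DNA barcodes, reflects how well the two displayed proteins bind. Each replicate has its own calibration line, from reference interactions of the BCL2 family. There are three technical replicates.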

The parent's heavy chain CDRs are GFTLNSYGIS, VIYSDGRRTFYGDSVK, GRAAGTFDS; each variant's own CDRs replace them letter for letter.
Numbers give log10(Kd / nM), so 0 is 1 nM and 3 is 1 µM. Smaller is tighter.
"n.d." means that the variant was in the library but no mating with the target was seen in that replicate; the authors take this as a sign of poor binding, and no number exists.
In this assay the parent's reference entry averaged 0.65; its copy inside this library read 4.11 (one replicate of three).
Empty control strains, which show no peptide, gave a signal in 15% of pairings with library AAYL49; the median was 4.06 and 95% of these signals were weaker than 2.83. No background was subtracted. Also given: how often the same scFv was detected with the empty control strains, with their mean in brackets.

| CDR-H1 | CDR-H2 | CDR-H3 | replicates, log10 nM | control signals |
|---|---|---|---|---|
| GFTLNSYGIS | VIYSDGRRTFYMDSVK | GRAAGQFDS | n.d. / n.d. / n.d. | 1/9 (2.31) |
| GFTMNSYGIS | VIYSDGRRTFYGDSVK | GRHAGCFDS | n.d. / n.d. / 3.55 | 0/9 |
| GFTLNSYGIS | VIYSDGRCTFYGDSVK | GRAKGTFDS | n.d. / n.d. / n.d. | 5/9 (4.65) |
| GFTLNSYGNS | VIYSDGRRTFYGDSVK | GRAATFFDS | 4.43 / n.d. / n.d. | 0/9 |
| GFTLNSYGTS | VIYSDGRRTFYGDSVK | GRAAGTFDS | 2.23 / 2.39 / 2.18 | 3/9 (4.02) |
| GFTYNSYGIS | VIYSDGRETFYGDSVK | GRAAGMFDS | n.d. / n.d. / n.d. | 0/9 |
| GFTLNSYGIS | VIYSDGRRTFYGDSVK | GRAQGTFDS | 0.31 / 0.72 / 0.51 | 3/9 (4.52) |
| GCTLNVYGIS | VIYSDGRRTFYGDQVK | GRAAGTFDS | n.d. / n.d. / n.d. | 0/9 |
| LFTLNSYGIW | VIYSDGRRTMYGDSVK | GRAAGTFDS | n.d. / n.d. / 2.01 | 1/9 (1.70) |
| GFTLNSYGIS | VIYSDGRRKFYGDSVK | NRAAGTADS | 4.66 / 3.62 / 3.97 | 3/9 (3.89) |
| GFTLNSYGIS | VIYSDGRRTFYGDSIK | GRAGGKFDS | n.d. / n.d. / n.d. | 0/9 |
| GFELNSYGIS | VIYSQGRRTFYGWSVK | GRAAGTFDS | n.d. / n.d. / n.d. | 3/9 (3.73) |
| GFTPNSYGIS | VIYSYGRRTNYGDSVK | GRAAGTFDS | n.d. / n.d. / n.d. | 0/9 |
| GFTLNSFGIS | VIYSDGRRTFYGDSVK | GHAAGTFDS | 0.68 / 0.89 / 0.89 | 0/9 |
| GFTLNSYGIA | VIYSDGRRTGYGDGVK | GRAAGTFDS | n.d. / n.d. / n.d. | 0/9 |
| GFTLNSYWIS | VICPDGRRTFYGDSVK | GRAAGTFDS | n.d. / 4.56 / n.d. | 2/9 (4.74) |
| GFTPNSYGIS | VIYSTGRRTFYGDSVQ | GRAAGTFDS | n.d. / n.d. / n.d. | 0/9 |
| GFTLNSYGIA | VIYSDGRRTFYGDSVK | GRAAGPFDS | n.d. / n.d. / n.d. | 0/9 |
| GFTLNSYGCS | VIYSDGRWTFYGDSVK | GRAAGTFDS | n.d. / 3.41 / n.d. | 1/9 (4.33) |
| GFTLNSYGIS | VIYYDGRRTFYGDSQK | GRAAGTRDS | n.d. / n.d. / n.d. | 1/9 (4.76) |
| GFTLNYYGIS | VIYSDGRRQFWGDSVK | GRAAGTFDS | n.d. / n.d. / n.d. | 0/9 |
| GFTLPSVGIS | VIYSDGRRTFYGDSVK | GRAAGTFRS | 4.30 / 5.20 / n.d. | 1/9 (3.13) |
| GFTLNWPGIS | VIYSDGRRTFYGDSVK | LRAAGTFDS | n.d. / n.d. / n.d. | 0/9 |
| GFTLNSYGIS | VIYSDGRRTFYGDLVK | YRARGTFDS | 4.33 / 5.19 / n.d. | 6/9 (4.11) |
| LFTLNSYGIS | VIYSDARRTFYGDSVK | GRAAGQFDS | n.d. / 5.34 / 4.01 | 2/9 (4.75) |
| GETLNSYGIS | VIYSDGERTFYGDSVK | GRAAGTWDS | 2.41 / 2.56 / 3.02 | 4/9 (4.78) |
| GFTLNSYGIS | VIYSDGRITFYGDSVY | GRAAGTFDW | n.d. / n.d. / n.d. | 0/9 |
| GFTLNSYGIS | VIQSDGRRTFYGTSVK | GRAAYTFDS | n.d. / 2.97 / n.d. | 2/9 (3.93) |
| GFALNSYIIS | VIYSDGRRTFYGDSVK | GRAAGTMDS | n.d. / n.d. / n.d. | 0/9 |
| GFTLNSYGIS | VIYQDGRRTFGGDSVK | GRAAGTFDS | n.d. / n.d. / n.d. | 0/9 |
| GMTLNSKGIS | VIYSDGRRTFYGDSVK | GRQAGTFDS | n.d. / 3.50 / n.d. | 0/9 |
| GFTLNSYGIS | VIYSDGRRTFQGDSMK | GRAAGTFDS | 5.02 / n.d. / n.d. | 4/9 (3.54) |
| GFTLNSYGIM | VIYSDGRRTFYGDMVT | GRAAGTFDS | 5.20 / 5.54 / 5.32 | 4/9 (4.33) |
| GFTLNSYGIS | VIYSDGRRYFYGDSVL | GRAAPTFDS | 5.79 / 3.45 / n.d. | 3/9 (3.15) |
| GFTLNSYGIV | VIFSDGRRTFYGDSVC | GRAAGTFDS | 4.69 / 2.51 / 3.69 | 0/9 |
| GFTLNSYGIS | NIYRDGRRTHYGDSVK | GRAAGTFDS | n.d. / n.d. / n.d. | 4/9 (4.26) |
| GFTLNSYGIS | VINSSGRRTFYGSSVK | GRAAGTFDS | n.d. / n.d. / n.d. | 0/9 |
| GFTMNSYGIS | VIYSKGRRTFYGDSVK | WRAAGTFDS | n.d. / n.d. / n.d. | 5/9 (4.12) |
| GFTLNTYGIS | VIYSDGRRDFYGDSVK | GRAASTFDS | 5.35 / n.d. / n.d. | 4/9 (4.24) |
| GFFLNSYGIS | VIYSNGRRTFYGDSVK | GRAMGTFDS | n.d. / n.d. / n.d. | 2/9 (2.87) |
| GFTLNSYGIS | VIYSDGRNTFYGDSIK | GRAAGEFDS | n.d. / n.d. / n.d. | 1/9 (3.24) |
| GFTLNSLGIS | LIYSDGRRTFYGDSVK | GRAAHTFDS | n.d. / n.d. / 3.54 | 0/9 |

A selection of 3 entries from above:

| CDR-H1 | CDR-H2 | CDR-H3 | replicates, log10 nM | control signals |
|---|---|---|---|---|
| GFTLNWPGIS | VIYSDGRRTFYGDSVK | LRAAGTFDS | n.d. / n.d. / n.d. | 0/9 |
| GFTLNSYGNS | VIYSDGRRTFYGDSVK | GRAATFFDS | 4.43 / n.d. / n.d. | 0/9 |
| GFTLNSYGIS | NIYRDGRRTHYGDSVK | GRAAGTFDS | n.d. / n.d. / n.d. | 4/9 (4.26) |

Values reported by Engelhart et al. 2022, doi:10.1038/s41597-022-01779-4 (FLAb copy).